# Only a part is listed here, and it is no random draw. Activity calls are given as the source filed them. Calls come from the whole dose curve; as a rule, active = well fitted inhibition curve with a large enough effect; inconclusive = small, poorly fitted or top-dose-only effect; inactive = no such curve, though single readings can be large or run the other way.
# Protein sequences, listed by entry. Tags and fused reporters are not part of them.
# UniProt Q14191, whole entry: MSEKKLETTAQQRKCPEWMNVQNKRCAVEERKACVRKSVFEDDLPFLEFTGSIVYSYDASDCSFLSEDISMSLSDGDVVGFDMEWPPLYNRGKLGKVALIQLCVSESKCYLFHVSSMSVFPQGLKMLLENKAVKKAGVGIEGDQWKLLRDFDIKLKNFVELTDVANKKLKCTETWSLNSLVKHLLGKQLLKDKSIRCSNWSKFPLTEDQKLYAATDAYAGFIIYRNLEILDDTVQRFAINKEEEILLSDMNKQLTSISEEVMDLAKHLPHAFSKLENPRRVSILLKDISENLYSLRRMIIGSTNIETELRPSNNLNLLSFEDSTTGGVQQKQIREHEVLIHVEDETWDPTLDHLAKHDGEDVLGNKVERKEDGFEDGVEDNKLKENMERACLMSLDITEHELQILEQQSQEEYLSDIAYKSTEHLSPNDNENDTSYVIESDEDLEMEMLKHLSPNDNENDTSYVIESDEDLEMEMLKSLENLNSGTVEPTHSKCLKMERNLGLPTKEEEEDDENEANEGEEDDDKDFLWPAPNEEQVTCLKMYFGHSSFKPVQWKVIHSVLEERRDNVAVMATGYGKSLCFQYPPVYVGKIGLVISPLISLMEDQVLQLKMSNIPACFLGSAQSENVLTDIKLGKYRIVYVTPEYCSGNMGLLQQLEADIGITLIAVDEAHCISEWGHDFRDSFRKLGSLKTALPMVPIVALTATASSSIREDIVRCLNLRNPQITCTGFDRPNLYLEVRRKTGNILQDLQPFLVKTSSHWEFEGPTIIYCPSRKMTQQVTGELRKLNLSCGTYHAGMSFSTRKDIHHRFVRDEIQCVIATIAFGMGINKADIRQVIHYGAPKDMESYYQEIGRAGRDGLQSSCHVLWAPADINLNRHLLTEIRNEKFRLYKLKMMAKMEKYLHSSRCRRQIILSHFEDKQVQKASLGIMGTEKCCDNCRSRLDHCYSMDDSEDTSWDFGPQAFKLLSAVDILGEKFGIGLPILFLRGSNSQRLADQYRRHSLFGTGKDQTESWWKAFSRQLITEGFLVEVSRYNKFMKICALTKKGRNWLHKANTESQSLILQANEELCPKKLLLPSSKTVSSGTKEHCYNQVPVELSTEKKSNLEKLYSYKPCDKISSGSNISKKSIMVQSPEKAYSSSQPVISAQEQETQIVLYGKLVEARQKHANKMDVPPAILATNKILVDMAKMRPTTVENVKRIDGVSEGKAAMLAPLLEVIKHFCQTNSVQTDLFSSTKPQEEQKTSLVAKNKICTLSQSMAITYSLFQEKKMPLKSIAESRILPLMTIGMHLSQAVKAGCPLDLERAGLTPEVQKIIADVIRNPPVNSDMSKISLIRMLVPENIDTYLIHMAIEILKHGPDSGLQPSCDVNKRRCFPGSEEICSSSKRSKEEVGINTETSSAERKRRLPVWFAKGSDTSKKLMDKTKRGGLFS
# Target: Bifunctional 3'-5' exonuclease/ATP-dependent helicase WRN (Homo sapiens) (UniProt Q14191)
# Assay: qHTS for Inhibitors of WRN Helicase; note: nearly all actives have a fitted effect of over 55% in size
# Conditions: WRN helicase unwinding, fluorescent forked duplex, kinetic; at 114 µM (top of the series)
# Text: Inhibition of DNA repair is proposed as a strategy for combating cancer. Synthetic lethality is an approach that exploits preexisting DNA repair deficiencies in certain tumors to develop inhibitors of DNA repair pathways that compensate for the tumor-associated DNA repair deficiency. […] We will employ an optimized high-throughput screening assay that utilizes a fluorescence intensity modulation scheme with a fluorophore and quencher positioned near one another within a duplex deoxyoligonucleotide that contains a single forked structure. […]
# Three muL of reagents (buffer in columns 3 and 4 as negative controls; WRN at 20 nM final concentration in columns 1 and 2 as positive controls; columns 5-48 as test reactions) will be dispensed into a 1536-well Greiner black plate via solenoid-valve based nanoliter dispensers. […] Plates will be incubated for 15 min at room temperature, and then 1 µL of substrate (100 nM forked duplex oligonucleotide and 2 mM ATP final concentrations) will be added to start reaction, and plate will be transferred into a ViewLux high-throughput CCD imager where reaction progress is measured in kinetic mode using standard red-fluorescence optics (excitation filter 525 nm, emission filter 598 nm).
# % is set by controls: 0 for no effect and ±100 for the full control effect.
row,Compound,"activity change, negative = inhibition"
1,CCC(=O)N(c1ccccc1)C1(COC)CCN(CCc2cccs2)CC1,inactive: 8.27%
2,CCC(=O)N(c1ccccc1)C1(COC)CCN(CCn2nnn(CC)c2=O)CC1,inactive: 3.7%
